# Reference: PubChem BioAssay AID651636 (Sanford-Burnham Center for Chemical Genomics, 2012)
# The chains behind the UniProt entries cited, without tags or fusion partners.
# UniProt P32249, whole entry: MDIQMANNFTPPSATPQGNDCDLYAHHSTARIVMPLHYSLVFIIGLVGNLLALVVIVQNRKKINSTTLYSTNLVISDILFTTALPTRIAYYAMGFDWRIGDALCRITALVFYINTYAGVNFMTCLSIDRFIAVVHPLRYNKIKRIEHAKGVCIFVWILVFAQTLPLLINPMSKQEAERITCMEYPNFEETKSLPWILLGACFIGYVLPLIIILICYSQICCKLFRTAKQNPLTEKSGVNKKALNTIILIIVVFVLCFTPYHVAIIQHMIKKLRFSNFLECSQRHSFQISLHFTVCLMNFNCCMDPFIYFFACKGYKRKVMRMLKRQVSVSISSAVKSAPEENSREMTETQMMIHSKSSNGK
# The list shows a part of the results, in another mix than the full data. Some results for these compounds are left out of this collection, so the calls shown say nothing about other tests. Calls of active or inactive are those of the source. No stated cut-off is given here; in the data, active means inhibition above about 38%; inactive means the rest.
# Molecular target: G-protein coupled receptor 183 (Homo sapiens) (UniProt P32249)
# Assay: blockers of oxysterol-driven EBI2 arrestin signaling – cell-based, luminescence, 7a,25-OHC stimulation, uHTS, primary screen (AID 651636);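 further: enzyme fragment complementation signal reports receptor beta-arrestin coupling in cells; 0% = agonist plus DMSO wells and 100% = wells without agonist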
# Conditions: EBI2 beta-arrestin recruitment, 7a,25-OHC stimulated, at 5 µM, active compounds read high
row,SMILES,inhibition
1,O=C(NCC1(N2CCCCC2)CCCCC1)c1cc([N+](=O)[O-])ccc1Cl,inactive: 10.4%
2,CN1[C@@H]2CC[C@H]1CC(OC(=O)C(O)(c1ccccc1)c1ccccc1)C2 (some centres not stated),inactive: 0.735%
3,CCCCC(CC)C(=O)N1CCN(C/C=C/c2ccccc2)CC1 (configuration not stated),active: 54.8%
4,CCN(CC)CC(C)C(C)OC(=O)C(O)(c1ccccc1)c1ccccc1 (configuration not stated),inactive: -6.48%
5,COc1cc(SC)ccc1C(=O)NCC1(N(C)C)CCCCC1,inactive: -13.3%
6,CC(C)N1C(=O)CC2(CCN(CCOC(=O)C(O)(c3ccccc3)c3ccccc3)CC2)C1=O,inactive: -1.66%
7,Cc1ccc(C(=O)NCC2(N3CCCCC3)CCCCC2)cc1,inactive: -2.77%
8,Cc1ccccc1C(=O)NCC1(N2CCCCC2)CCCCC1,inactive: -8.42%
9,CN(C)c1ccc(C(=O)NCC2(N(C)C)CCCCC2)cc1,inactive: 11.5%
10,CN(C)C1CCCC1OC(=O)C(O)(c1ccccc1)c1ccccc1 (configuration not stated),inactive: 1.53%
11,C=CCN1CCN(CCOC(=O)C(O)(c2ccccc2)c2ccccc2)CC1,inactive: -4.09%
12,O=C(NCC1(N2CCCCC2)CCCCC1)c1cc(F)c(F)cc1Cl,inactive: -11.1%
13,COc1ccc(C(=O)NCC2(N(C)C)CCCCC2)cc1,inactive: 2.69%
14,CCN1CCCC(OC(=O)C2(O)c3ccccc3C=Cc3ccccc32)C1 (configuration not stated),inactive: -4.09%
15,Cc1cc(C(=O)NCC2(N3CCCCC3)CCCCC2)ccc1[N+](=O)[O-],inactive: 2.75%
16,O=C(NCC1(N2CCCCC2)CCCCC1)c1cccc(Br)c1,inactive: 5.48%
17,CN(C)C1(CNC(=O)c2ccc(Br)cc2)CCCCC1,inactive: -19.9%
18,COc1cc(C(=O)NCC2(N(C)C)CCCCC2)c([N+](=O)[O-])cc1OC,inactive: -0.463%
19,COc1cccc(C(=O)NCC2(N3CCCCC3)CCCCC2)c1,inactive: -0.288%
20,COc1ccc(Cl)cc1C(=O)NCC1(N(C)C)CCCCC1,inactive: 0.179%
21,O=C(NCC1(N2CCCCC2)CCCCC1)c1cccc(Cl)c1,inactive: -4.96%
22,O=C(OC1CN2CCC1CC2)C(CO)(c1ccccc1)c1ccccc1 (configuration not stated),inactive: 3.52%
23,C=C(C)C#CC(O)(C(=O)OC1CCN(C)CC1)c1ccccc1 (configuration not stated),inactive: -5.16%
24,COc1ccc(Br)c(C(=O)NCC2(N3CCCCC3)CCCCC2)c1,inactive: 15.2%
25,CC(C)Oc1ccc(C(=O)NCC2(N(C)C)CCCCC2)cc1,inactive: 3.05%
26,O=C(OCCN1CCCC1)C(O)(c1ccccc1)c1ccccc1,inactive: -11.7%
27,CN(C)c1cccc(C(=O)NCC2(N(C)C)CCCCC2)c1,inactive: -8.07%
